According to ChEMBL document CHEMBL5149989, “Interplay among Conformation, Intramolecular Hydrogen Bonds, and Chameleonicity in the Membrane Permeability and Cyclophilin A Binding of Macrocyclic Peptide Cyclosporin O Derivatives” (J Med Chem, 2021):

Assay: Efflux ratio of permeability from basolateral to apical side over apical to basolateral side in human Caco2 cells measured at 0.5 to 2 hrs by LC-MS analysis
Type: ADME, cell-based
Conditions: caco-2, time 0.5-2 hrs

## CC(C)NCC(O)COc1ccc(CC(N)=O)cc1 (stereo unspecified) [ATENOLOL]
  Ratio: 10
